Consider 1 molecule from patent US20210396761A1 (AICURIS, published 2021).

The assay addresses T1, His-tagged pUL50 (HCMV groove protein, soluble recombinant) (human cytomegalovirus (HCMV), UniProt P16791 1-175).
T1 construct: also called His-tagged groove protein
T1 sequence: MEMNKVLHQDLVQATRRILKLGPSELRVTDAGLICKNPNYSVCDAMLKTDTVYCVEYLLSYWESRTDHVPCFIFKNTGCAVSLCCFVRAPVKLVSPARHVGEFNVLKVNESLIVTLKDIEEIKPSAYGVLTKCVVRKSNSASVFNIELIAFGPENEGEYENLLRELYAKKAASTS
In words: competitive ELISA, inhibition of His-tagged pUL50 binding to coated pUL53. (In general: In an ELISA, binding on a coated surface is turned into a signal by an enzyme label.)

B1: BFLF2 (EBV hook protein, soluble recombinant) (other)
chain: DRSHFSLRDFFRGISANFELGKDFLREMNTPIHVSEAVFLPLSLCTLSPGRCLRLSPFGHSLTLGSHCEICINRSQVHVPQEFSSTQLSFFNNVHKIIPNKTFYVSLLSSSPSAVKAGLSQPSLLYAYLVTGHFCGTICPIFSTNGKGRLIMHLLLQGTSLHIPETCLKLLCENIGPTYELAVDLVGDAFCIKVSPRDTVYEKAVNVDEDAIYEAIKDLECGDELRLQIINYTQLILENKQ
On to B1, for which the half-maximal inhibitory concentration (IC50) was determined as 198 nM.

As a reminder, the IC50 is the concentration needed to halve the response being measured.
